ChEMBL document CHEMBL6074668 (J Med Chem, 2024)

Sequences of proteins named here, by UniProt entry; tags and fusion partners are left off. A change or cut given only in a name is not applied to a line headed by its entry.
UniProt P41145: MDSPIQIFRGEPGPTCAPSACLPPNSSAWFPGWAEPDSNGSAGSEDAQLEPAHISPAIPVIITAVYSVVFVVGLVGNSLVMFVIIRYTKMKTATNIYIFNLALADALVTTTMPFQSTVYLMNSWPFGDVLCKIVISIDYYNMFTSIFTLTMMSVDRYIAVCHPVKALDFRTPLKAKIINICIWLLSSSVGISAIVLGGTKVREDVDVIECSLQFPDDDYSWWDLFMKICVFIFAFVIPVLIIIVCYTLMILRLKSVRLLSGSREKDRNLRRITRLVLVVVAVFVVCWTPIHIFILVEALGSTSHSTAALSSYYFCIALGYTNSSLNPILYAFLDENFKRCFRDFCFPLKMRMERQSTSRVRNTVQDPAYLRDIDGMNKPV
UniProt P35372, whole entry: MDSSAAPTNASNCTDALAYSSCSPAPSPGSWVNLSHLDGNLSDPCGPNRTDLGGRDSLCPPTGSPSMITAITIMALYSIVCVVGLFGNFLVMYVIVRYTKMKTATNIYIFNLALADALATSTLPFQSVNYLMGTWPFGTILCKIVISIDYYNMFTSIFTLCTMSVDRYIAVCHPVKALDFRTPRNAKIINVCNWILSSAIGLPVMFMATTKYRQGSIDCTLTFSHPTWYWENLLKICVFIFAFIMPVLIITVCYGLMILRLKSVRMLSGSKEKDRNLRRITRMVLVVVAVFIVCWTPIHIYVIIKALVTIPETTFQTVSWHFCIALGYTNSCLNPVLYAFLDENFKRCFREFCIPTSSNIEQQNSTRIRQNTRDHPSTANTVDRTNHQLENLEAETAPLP
UniProt P18089, whole entry: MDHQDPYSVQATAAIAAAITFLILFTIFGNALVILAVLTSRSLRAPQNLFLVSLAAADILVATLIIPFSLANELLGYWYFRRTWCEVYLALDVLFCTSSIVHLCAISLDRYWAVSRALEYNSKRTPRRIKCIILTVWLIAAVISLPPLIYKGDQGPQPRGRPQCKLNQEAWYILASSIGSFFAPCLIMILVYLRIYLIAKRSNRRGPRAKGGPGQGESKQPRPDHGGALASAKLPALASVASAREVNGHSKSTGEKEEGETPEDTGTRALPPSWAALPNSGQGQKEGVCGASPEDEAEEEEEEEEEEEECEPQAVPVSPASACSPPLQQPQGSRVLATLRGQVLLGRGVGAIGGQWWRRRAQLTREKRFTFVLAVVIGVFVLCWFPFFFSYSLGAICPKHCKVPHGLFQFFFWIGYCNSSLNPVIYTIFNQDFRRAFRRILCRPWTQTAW
UniProt P41143, whole entry: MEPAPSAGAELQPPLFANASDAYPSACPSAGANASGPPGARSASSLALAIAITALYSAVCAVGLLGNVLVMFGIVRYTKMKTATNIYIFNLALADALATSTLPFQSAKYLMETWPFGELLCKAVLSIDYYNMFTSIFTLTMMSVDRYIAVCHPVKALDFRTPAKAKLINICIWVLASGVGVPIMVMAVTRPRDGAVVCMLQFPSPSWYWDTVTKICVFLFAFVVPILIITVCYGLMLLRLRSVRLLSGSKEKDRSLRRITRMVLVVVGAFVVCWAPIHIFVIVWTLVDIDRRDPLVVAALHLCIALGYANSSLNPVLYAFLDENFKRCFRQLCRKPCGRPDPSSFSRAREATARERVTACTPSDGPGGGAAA
UniProt P35368, whole entry: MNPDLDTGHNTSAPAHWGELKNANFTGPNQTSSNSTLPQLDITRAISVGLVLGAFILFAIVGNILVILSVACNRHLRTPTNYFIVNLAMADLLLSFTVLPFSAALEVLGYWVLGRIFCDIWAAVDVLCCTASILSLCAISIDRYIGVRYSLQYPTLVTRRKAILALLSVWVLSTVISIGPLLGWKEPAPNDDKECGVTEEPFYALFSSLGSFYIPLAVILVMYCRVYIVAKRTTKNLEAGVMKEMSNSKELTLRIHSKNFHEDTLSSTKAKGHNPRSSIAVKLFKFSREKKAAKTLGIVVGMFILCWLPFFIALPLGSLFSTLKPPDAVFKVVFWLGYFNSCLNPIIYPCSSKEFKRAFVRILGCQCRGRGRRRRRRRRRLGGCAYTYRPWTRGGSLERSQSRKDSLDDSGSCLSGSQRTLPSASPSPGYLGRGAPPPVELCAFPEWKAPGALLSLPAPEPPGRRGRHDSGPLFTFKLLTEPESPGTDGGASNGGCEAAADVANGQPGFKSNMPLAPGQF
UniProt P41595, whole entry: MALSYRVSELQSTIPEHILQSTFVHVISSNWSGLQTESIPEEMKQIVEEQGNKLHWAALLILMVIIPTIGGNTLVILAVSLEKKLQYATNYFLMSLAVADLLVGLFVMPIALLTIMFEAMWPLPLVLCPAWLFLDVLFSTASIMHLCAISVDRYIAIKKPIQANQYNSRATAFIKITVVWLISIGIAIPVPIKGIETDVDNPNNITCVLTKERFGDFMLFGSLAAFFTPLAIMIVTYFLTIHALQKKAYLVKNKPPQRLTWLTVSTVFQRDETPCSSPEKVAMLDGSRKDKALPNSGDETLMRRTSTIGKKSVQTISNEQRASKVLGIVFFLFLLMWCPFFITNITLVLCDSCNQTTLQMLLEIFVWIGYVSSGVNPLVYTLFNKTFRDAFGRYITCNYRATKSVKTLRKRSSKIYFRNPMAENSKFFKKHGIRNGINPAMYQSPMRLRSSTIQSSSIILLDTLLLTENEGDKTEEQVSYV
UniProt P08913, whole entry: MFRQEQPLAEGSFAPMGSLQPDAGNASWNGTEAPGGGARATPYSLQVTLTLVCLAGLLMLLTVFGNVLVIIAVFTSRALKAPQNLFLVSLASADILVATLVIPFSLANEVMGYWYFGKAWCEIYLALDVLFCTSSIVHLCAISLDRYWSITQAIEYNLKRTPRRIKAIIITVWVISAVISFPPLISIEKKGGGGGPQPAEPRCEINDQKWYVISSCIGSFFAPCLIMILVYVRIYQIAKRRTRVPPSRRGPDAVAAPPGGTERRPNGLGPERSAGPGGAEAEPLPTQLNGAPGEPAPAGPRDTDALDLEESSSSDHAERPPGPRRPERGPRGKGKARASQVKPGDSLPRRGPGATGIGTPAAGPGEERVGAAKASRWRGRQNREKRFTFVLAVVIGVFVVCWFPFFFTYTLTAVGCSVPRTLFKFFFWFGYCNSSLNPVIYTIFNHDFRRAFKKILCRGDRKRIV
UniProt P23975, whole entry: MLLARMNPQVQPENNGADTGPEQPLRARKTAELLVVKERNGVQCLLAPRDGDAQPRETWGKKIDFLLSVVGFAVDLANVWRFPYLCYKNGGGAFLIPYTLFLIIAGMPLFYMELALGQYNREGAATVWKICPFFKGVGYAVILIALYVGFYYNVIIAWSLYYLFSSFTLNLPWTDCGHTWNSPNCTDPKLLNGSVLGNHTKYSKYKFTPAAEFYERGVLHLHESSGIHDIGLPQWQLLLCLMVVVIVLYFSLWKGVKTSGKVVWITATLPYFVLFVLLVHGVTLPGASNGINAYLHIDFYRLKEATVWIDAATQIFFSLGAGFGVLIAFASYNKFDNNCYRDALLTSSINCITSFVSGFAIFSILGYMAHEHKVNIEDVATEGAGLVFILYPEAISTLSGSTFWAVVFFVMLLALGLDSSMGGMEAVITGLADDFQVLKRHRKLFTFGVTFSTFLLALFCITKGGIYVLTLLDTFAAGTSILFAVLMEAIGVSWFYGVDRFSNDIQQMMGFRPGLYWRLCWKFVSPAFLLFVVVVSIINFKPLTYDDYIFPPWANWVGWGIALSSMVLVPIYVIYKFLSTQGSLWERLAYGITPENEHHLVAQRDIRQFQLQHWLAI
UniProt P25100, whole entry: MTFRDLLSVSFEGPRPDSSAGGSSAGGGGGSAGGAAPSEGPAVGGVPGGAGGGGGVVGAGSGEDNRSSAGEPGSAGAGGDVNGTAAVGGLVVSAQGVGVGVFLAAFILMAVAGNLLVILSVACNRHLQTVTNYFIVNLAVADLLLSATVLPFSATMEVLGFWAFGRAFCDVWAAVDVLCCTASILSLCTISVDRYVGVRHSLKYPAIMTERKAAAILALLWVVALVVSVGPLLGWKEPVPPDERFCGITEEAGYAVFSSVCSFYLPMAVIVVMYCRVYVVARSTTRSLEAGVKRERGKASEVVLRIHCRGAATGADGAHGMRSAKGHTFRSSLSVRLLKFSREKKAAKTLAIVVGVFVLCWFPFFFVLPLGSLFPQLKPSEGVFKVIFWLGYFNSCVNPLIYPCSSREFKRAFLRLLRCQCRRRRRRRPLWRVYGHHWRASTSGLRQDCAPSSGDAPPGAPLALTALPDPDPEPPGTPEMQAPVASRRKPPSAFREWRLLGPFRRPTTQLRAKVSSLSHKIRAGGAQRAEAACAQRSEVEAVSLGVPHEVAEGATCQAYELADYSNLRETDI

Columns and labels:
[1] = Selectivity for kappa opoid receptor (unknown origin) over hERG
[2] = Selectivity for kappa opoid receptor (unknown origin) over Sigma2 opioid receptor (unknown origin)
[3] = Selectivity for kappa opoid receptor (unknown origin) over 5HT5A receptor (unknown origin)
[4] = Selectivity for kappa opoid receptor (unknown origin) over 5HT3 receptor (unknown origin)
[5] = target: T1, Kappa-type opioid receptor (Homo sapiens, UniProt P41145); assay: Potency index, ratio of akuammicine-EC50 to test compound EC50 for agonist activity at human kappa opioid receptor expressed in CHO-K1 cells assessed as inhibition of forskolin-stimulated cAMP accumulation by HitHunter assay based luminescence analysis; assay type: functional, cell-based
[6] = Selectivity for kappa opoid receptor (unknown origin) over alpha2C adrenergic receptor (unknown origin)
[7] = target: T1, Kappa-type opioid receptor; assay: Agonist activity at kappa opioid receptor (unknown origin) expressed in human U2OS cells assessed as beta arrestin2 recruitment incubated for 30 mins by PathHunter assay; assay type: functional, cell-based; conditions: filed as agonist
[8] = Selectivity index, ratio of Ki for mu opioid receptor (unknown origin) expressed in CHO cell membrane to Ki for kappa opioid receptor (unknown origin) expressed in CHO cell membrane; assay type: cell-based
[9] = Selectivity for kappa opoid receptor (unknown origin) over NET (unknown origin)
[10] = Selectivity for kappa opoid receptor (unknown origin) over 5HT2A receptor (unknown origin)
[11] = Selectivity for kappa opoid receptor (unknown origin) over 5HT2B receptor (unknown origin)
[12] = Selectivity for kappa opoid receptor (unknown origin) over alpha7 adrenergic receptor (unknown origin)
[13] = target: Mu-type opioid receptor (Homo sapiens, UniProt P35372); assay: Binding affinity to mu opioid receptor (unknown origin) at 10 uM by radioligand displacement assay
[14] = target: Alpha-2B adrenergic receptor (Homo sapiens, UniProt P18089); assay: Binding affinity to alpha2B adrenergic receptor (unknown origin) at 10 uM by radioligand displacement assay
[15] = Selectivity for kappa opoid receptor (unknown origin) over mu opioid receptor (unknown origin)
[16] = Selectivity for kappa opoid receptor (unknown origin) over 5HT7A receptor (unknown origin)
[17] = Selectivity for kappa opoid receptor (unknown origin) over alpha1D adrenergic receptor (unknown origin)
[18] = Selectivity for kappa opoid receptor (unknown origin) over alpha1B adrenergic receptor (unknown origin)
[19] = target: Delta-type opioid receptor (Homo sapiens) (UniProt P41143); assay: Binding affinity to delta opioid receptor (unknown origin) at 10 uM by radioligand displacement assay
[20] = Selectivity for kappa opoid receptor (unknown origin) over alpha1A adrenergic receptor (unknown origin)
[21] = Selectivity for kappa opoid receptor (unknown origin) over alpha2A adrenergic receptor (unknown origin)
[22] = Selectivity for kappa opoid receptor (unknown origin) over alpha2B adrenergic receptor (unknown origin)
[23] = Selectivity for kappa opoid receptor (unknown origin) over delta opioid receptor (unknown origin)
[24] = target: Alpha-1B adrenergic receptor (Homo sapiens, UniProt P35368); assay: Binding affinity to alpha1B adrenergic receptor (unknown origin) at 10 uM by radioligand displacement assay
[25] = species: Homo sapiens; assay: Binding affinity to alpha7 adrenergic receptor (unknown origin) at 10 uM by radioligand displacement assay
[26] = species: Homo sapiens; assay: Binding affinity to Sigma2 opioid receptor (unknown origin) at 10 uM by radioligand displacement assay
[27] = target: T2, Alpha-1A adrenergic receptor (Homo sapiens) (UniProt P35348); assay: Binding affinity to alpha1A adrenergic receptor (unknown origin) at 10 uM by radioligand displacement assay
T2 sequence (whole entry): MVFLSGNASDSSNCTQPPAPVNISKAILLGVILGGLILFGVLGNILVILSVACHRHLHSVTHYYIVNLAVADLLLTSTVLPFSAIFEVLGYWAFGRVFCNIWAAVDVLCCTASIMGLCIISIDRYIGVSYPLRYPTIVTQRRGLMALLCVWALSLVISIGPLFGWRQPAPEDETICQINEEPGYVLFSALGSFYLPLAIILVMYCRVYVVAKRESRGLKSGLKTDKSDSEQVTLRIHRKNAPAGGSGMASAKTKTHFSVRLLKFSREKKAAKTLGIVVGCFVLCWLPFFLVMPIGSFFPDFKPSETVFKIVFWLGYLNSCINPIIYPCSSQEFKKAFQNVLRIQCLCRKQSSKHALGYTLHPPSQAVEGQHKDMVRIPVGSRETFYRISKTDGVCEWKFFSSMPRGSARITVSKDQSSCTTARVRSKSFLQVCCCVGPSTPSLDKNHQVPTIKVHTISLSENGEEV

[28] = target: 5-hydroxytryptamine receptor 2B (Homo sapiens, UniProt P41595); assay: Binding affinity to 5HT2B receptor (unknown origin) at 10 uM by radioligand displacement assay
[29] = target: Alpha-2A adrenergic receptor (Homo sapiens, UniProt P08913); assay: Binding affinity to alpha2A adrenergic receptor (unknown origin) at 10 uM by radioligand displacement assay
[30] = target: Sodium-dependent noradrenaline transporter (Homo sapiens, UniProt P23975); assay: Binding affinity to NET (unknown origin) at 10 uM by radioligand displacement assay
[31] = target: Alpha-1D adrenergic receptor (Homo sapiens, UniProt P25100); assay: Binding affinity to alpha1D adrenergic receptor (unknown origin) at 10 uM by radioligand displacement assay

Q: With `C/C=C1/CN2CC[C@]34C(=C(C(=O)OC)[C@H]1C[C@H]23)Nc1ccc(I)cc14` as the compound, how does the Selectivity ratio [1] read?
A: The Selectivity ratio was greater than 200.

Q: And the Selectivity ratio [2]?
A: Its Selectivity ratio is greater than 200.

Q: And the Selectivity ratio [3]?
A: The Selectivity ratio was greater than 200.

Q: What about the Selectivity ratio [4] of the same compound?
A: Its Selectivity ratio is greater than 200.

Q: And the Ratio EC50 ([5]; filed as agonist)?
A: Its Ratio EC50 is 200.

Q: What about the Selectivity ratio [6] of the same compound?
A: The Selectivity ratio was greater than 200.

Q: And the Activity [7]?
A: The Activity was “Active; More Efficacious Than U50488”.

Q: And the Ratio Ki [8]?
A: Its Ratio Ki is 40000.

Q: What about the Selectivity ratio [9] of the same compound?
A: The Selectivity ratio was greater than 200.

Q: What about the Selectivity ratio [10] of the same compound?
A: The Selectivity ratio was greater than 200.

Q: And the Selectivity ratio [11]?
A: Its Selectivity ratio is greater than 200.

Q: What about the Selectivity ratio [12] of the same compound?
A: Its Selectivity ratio is greater than 200.

Q: What about the Activity [13] of the same compound?
A: The Activity was less than 50%.

Q: What about the Activity [14] of the same compound?
A: The Activity was less than 50%.

Q: What about the Selectivity ratio [15] of the same compound?
A: Its Selectivity ratio is greater than 200.

Q: And the Selectivity ratio [16]?
A: The Selectivity ratio was greater than 200.

Q: What about the Selectivity ratio [17] of the same compound?
A: The Selectivity ratio was greater than 200.

Q: What about the Selectivity ratio [18] of the same compound?
A: The Selectivity ratio was greater than 200.

Q: What about the Activity [19] of the same compound?
A: Its Activity is less than 50%.

Q: And the Selectivity ratio [20]?
A: Its Selectivity ratio is greater than 200.

Q: And the Selectivity ratio [21]?
A: Its Selectivity ratio is greater than 200.

Q: And the Selectivity ratio [22]?
A: The Selectivity ratio was greater than 200.

Q: What about the Selectivity ratio [23] of the same compound?
A: The Selectivity ratio was greater than 200.

Q: With `C/C=C1/CN2CC[C@]34C(=C(C(=O)OC)[C@H]1C[C@H]23)Nc1ccccc14` [AKUAMMICINE] as the compound, how does the Activity [24] read?
A: The Activity was less than 50%.

Q: What about the Activity [25] of the same compound?
A: Its Activity is less than 50%.

Q: And the Activity [26]?
A: The Activity was less than 50%.

Q: And the Activity [27]?
A: Its Activity is less than 50%.

Q: What about the Activity [28] of the same compound?
A: Its Activity is less than 50%.

Q: And the Activity [29]?
A: Its Activity is less than 50%.

Q: And the Activity [30]?
A: Its Activity is less than 50%.

Q: What about the Activity [19] of the same compound?
A: Its Activity is less than 50%.

Q: What about the Activity [31] of the same compound?
A: The Activity was less than 50%.

Q: With `C/C=C1/CN2CC[C@]34C(=C(C(=O)OC)[C@H]1C[C@H]23)Nc1ccc(-c2ccoc2)cc14` as the compound, how does the Ratio EC50 [5] read?
A: The Ratio EC50 was greater than 1300.
